# Values of other authors, collected in patent publication US20020077465A1, “ADAM polynucleotides, polypeptides, and antibodies” (priority 2000, published 2002).
# Amino acid sequences for entries named in this document (tags omitted). Residues count along the entry.
# UniProt P08254, 100-477, species assumed: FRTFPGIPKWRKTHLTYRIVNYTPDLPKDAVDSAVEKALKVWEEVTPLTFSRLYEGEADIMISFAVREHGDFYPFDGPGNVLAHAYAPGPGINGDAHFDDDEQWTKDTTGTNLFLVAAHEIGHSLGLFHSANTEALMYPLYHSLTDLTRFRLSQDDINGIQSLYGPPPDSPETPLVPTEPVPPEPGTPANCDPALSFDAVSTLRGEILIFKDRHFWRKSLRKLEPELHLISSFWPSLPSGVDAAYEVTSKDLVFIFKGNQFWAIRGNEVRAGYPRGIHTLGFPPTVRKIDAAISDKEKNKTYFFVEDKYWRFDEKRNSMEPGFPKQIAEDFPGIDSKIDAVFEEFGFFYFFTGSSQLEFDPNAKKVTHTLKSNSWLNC
# Target: MMP-3 (Homo sapiens, UniProt P08254)
# Settings: read-out: Ki against MMP-3
compound,measurement,value
COc1ccc(S(=O)(=O)N(CC(=O)NO)CC(C)C)cc1 [MMP-3 inhibitor II],Ki,130 nM
